Values quoted from earlier work in US20200101067A1 (IRR, Inc., priority 2013, published 2020).
Where two headings read alike, the source gives them in different places.

System: histamine induced wheal and flare
Conditions: levocetirizine 5 mg per day vs fexofenadine 180 mg per day

## O=C(O)COCCN1CCN([C@H](c2ccccc2)c2ccc(Cl)cc2)CC1 [Levocetirizine, levocetirizine]
  Potency/effectiveness in histamine induced wheal and flare: most potent of the five modern generation antihistamines
Listed as levocetirizine
  Potency/effectiveness in histamine induced wheal and flare: more effective than fexofenadine
